The source of these data is PubChem BioAssay AID720582 (The Scripps Research Institute Molecular Screening Center, 2013).

By UniProt entry, the sequences of proteins in these tests, tags left out. Where a name states a change or a piece, a line headed by the entry shows the natural chain unless it says otherwise.
UniProt O14672: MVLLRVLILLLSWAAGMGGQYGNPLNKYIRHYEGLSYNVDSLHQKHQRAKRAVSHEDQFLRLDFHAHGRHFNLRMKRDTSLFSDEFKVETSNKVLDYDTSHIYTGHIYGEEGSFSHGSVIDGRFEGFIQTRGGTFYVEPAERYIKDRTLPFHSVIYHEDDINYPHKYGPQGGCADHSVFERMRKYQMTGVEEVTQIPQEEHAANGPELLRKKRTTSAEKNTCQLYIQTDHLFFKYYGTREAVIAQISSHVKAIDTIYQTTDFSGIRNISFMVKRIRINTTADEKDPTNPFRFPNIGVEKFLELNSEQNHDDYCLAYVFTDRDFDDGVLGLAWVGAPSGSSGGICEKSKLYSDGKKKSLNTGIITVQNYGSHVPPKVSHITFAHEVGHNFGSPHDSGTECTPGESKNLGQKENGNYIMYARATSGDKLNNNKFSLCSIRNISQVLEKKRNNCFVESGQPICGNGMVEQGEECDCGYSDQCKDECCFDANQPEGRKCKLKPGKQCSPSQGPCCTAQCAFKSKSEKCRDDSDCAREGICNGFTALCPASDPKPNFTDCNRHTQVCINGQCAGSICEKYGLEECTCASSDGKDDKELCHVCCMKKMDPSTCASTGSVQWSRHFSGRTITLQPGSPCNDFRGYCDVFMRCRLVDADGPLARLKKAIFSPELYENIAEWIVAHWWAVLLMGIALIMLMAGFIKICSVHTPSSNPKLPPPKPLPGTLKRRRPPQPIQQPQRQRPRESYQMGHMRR

The inhibition is the drop in the measured response relative to a control, in per cent.

The entries are a selection whose mix differs from that of the whole data set. Active and inactive are the calls of the source.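 Rule for the calls: active = inhibition above a per-campaign cutoff equal to the mean of compounds falling between control-based bounds plus 3 SD (cut at about 20% in these data); inactive = the rest.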

The experiment deals with Disintegrin and metalloproteinase domain-containing protein 10 (Homo sapiens) (UniProt O14672). Description: human ADAM10 inhibitors, primary screen, biochemical, QFRET, HTS (AID 720582).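 Note: 0% = DMSO wells while the 100% control is not disclosed.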 Particulars: recombinant ADAM10, EDANS/DABCYL FRET peptide cleavage, 3 h; at 7 µM; stronger effect = higher value.
Regarding `c1nnnn1CCn1cnnn1`, the inhibition is inactive: 2.32%. As to `CC(C)C(=O)NC(Sc1ccccc1)C(Cl)(Cl)Cl` (centres undefined), the inhibition was inactive: -8.1%. For `O=P(Nc1nccs1)(c1ccccc1)c1ccccc1`, the inhibition was inactive: 3.49%.

Turning to `CC(C)(C)C(=O)NC(Sc1ccccc1)C(Cl)(Cl)Cl` (centres undefined), the inhibition was inactive: 1.93%. On to `CCc1cc(O)c([N+](=O)[O-])c(C)c1[N+](=O)[O-]`, for which the inhibition is inactive: -9.87%. For the compound `O=P1(Nc2nc3ccc(Cl)cc3s2)COc2ccccc2O1` (centres undefined), the inhibition was inactive: -7.08%. `CCOc1ccc(C2=NCC(CBr)S2)cc1` (centres undefined): the inhibition was inactive: 6.34%. Next, `CC(=O)Nc1ccc([As](=O)(O)O)c(O)c1`: inactive: -8.34%; `CC(=O)Nc1ccc(Oc2c([N+](=O)[O-])cc([N+](=O)[O-])cc2[N+](=O)[O-])cc1`: inactive: -9.65%; `Cc1ccccc1CN(C)C(=O)COC(=O)C(O)(c1ccccc1)c1ccccc1`: inactive: -5.96%. Regarding `C[C@H]1OP(=O)(Oc2ccccc2)C[C@@H]2O[C@@H]21` (some centres undefined), the inhibition is inactive: 6.77%. As to `C[C@@H]1C=CCP(=O)(Oc2ccccc2)O1` (some centres undefined), the inhibition was inactive: 3.31%. With `CC(=O)c1ccc(N2CC2c2ccncc2)cc1` (centres undefined) the figure was inactive: 0.76%; with `N#C/C(=C\c1ccc(N(CCBr)CCBr)cc1)C(N)=O`, inactive: -0.36%; with `COC(=O)C1(C)COP(=O)(NCc2ccccc2)OC1` (centres undefined), inactive: -2.73%.

Regarding `O=P1(N(CCCl)CCCl)OCCC2CCCCN21` (centres undefined), the inhibition was inactive: -3.12%. As for `c1ccc(-c2nn[nH]n2)c(-c2nn[nH]n2)c1`, the inhibition was inactive: -10.2%. With `Cc1ccc(NP(=O)(Oc2cccc(C)c2)Oc2cccc(C)c2)nc1`, the inhibition is inactive: 1.51%. With `CCNC(=S)/N=C(\N)N[N+](=O)[O-]` the figure was inactive: -0.92%; with `O=C(NC1CCS(=O)(=O)C1)NP(=S)(Oc1ccccc1)Oc1ccccc1` (centres undefined), inactive: 6.41%; with `CC(NC(=O)COC(=O)C(O)(c1ccccc1)c1ccccc1)c1ccccc1` (centres undefined), inactive: -5.05%.

`Cc1ccccc1OP(=O)(Nc1ccccn1)Oc1ccccc1C`: the inhibition was inactive: -17.5%. With `O=c1c2cc([N+](=O)[O-])ccc2[nH]c2c([N+](=O)[O-])cc([N+](=O)[O-])cc12` the figure was inactive: 1.15%. As for `CN(C)C(=O)Oc1noc2ccccc12`, the inhibition was inactive: 0.68%.

As to `O=C(OC1CN2CCC1CC2)c1ccccc1` (centres undefined), the inhibition is inactive: -2.58%. Next, `CCC(=O)N1C2C3N(C(=O)CC)C1C1N(C(=O)CC)C(C(N1C(=O)CC)N3C(=O)CC)N2C(=O)CC`: inactive: -9.39%; `COC(=O)c1cc2c(s1)N=C(c1ccccc1)N(C)P2(=O)N1CCOCC1` (centres undefined): inactive: 2.71%; `Cc1ccc(OP(=O)(Nc2ccccn2)Oc2ccc(C)cc2)cc1`: inactive: -1.63%. As to `CC(=O)NC(SC(=S)N(CC(C)C)CC(C)C)C(Cl)(Cl)Cl` (centres undefined), the inhibition is inactive: -4.54%.

As to `CCn1c(=O)n(C2CCN(CC3CCCCCCC3)C[C@H]2CO)c2ccccc21` (some centres undefined), the inhibition is inactive: -0.9%. Next, `Cc1cc(SC(NC(=O)c2ccc(F)cc2)C(Cl)(Cl)Cl)ncn1` (centres undefined): inactive: -3.02%. On to `CCOP(=O)(Nc1ccccc1)OCC`, for which the inhibition is inactive: 0.91%. Next, `Cc1ccc(NP(=O)(Oc2ccccc2F)Oc2ccccc2F)nc1`: inactive: -0.05%. In the case of `CN(C(=O)Cc1ccc(Cl)c(Cl)c1)[C@H]1CCCC[C@@H]1N1CCCC1`, the inhibition was inactive: -5.98%. On to `O=P(Nc1nc2ccc(Cl)cc2s1)(c1ccccc1)c1ccccc1`, for which the inhibition was inactive: 9.31%. As for `CN(C)P(=O)(N(C)C)n1c(Nc2ccccc2)nnc1-c1ccccc1`, the inhibition is inactive: 3.26%. Regarding `CC(=O)Nc1ccc([As](=O)(O)O)cc1`, the inhibition was inactive: 11.7%. On to `O=C(O)c1ccccc1[As](=O)(O)O`, for which the inhibition is inactive: -0.53%. Consider `CCCC1OP(N)(=O)OCC1CC` (centres undefined), for which the inhibition was inactive: 3.56%.

For the compound `Nc1cccc2ccc([As](=O)(O)O)cc12`, the inhibition was inactive: -327%. Take `CN(C(=O)Cc1ccccc1)C1CC[C@@]2(CCCO2)C[C@@H]1N1CCCC1` (some centres undefined): the inhibition was inactive: -16.2%. With `CCN(N=Nc1nonc1N)c1nonc1N` the figure was inactive: 8.15%; with `CN1CCCC(OC(=O)C(c2ccccc2)c2ccccc2)C1` (centres undefined), inactive: -1.54%; with `Clc1ccc(Cl)c(NC2=NCC(CBr)S2)c1` (centres undefined), inactive: -0.72%. With `COc1ccccc1OP(=O)(Nc1ccc(C)cn1)Oc1ccccc1OC`, the inhibition was inactive: -1.59%. Take `Cc1ccc(OP(=O)(Nc2nccs2)Oc2ccc(C)cc2)cc1`: the inhibition was inactive: 1.15%. Take `CN(C(=O)Cc1ccc(Cl)c(Cl)c1)[C@H]1CCCC[C@H]1N1CCCC1`: the inhibition is inactive: 7.85%. On to `Cc1ccc(N/C(=N/P(=O)(N2CCOCC2)N2CCOCC2)N2CCOCC2)cc1`, for which the inhibition is inactive: 1.08%. Consider `NC(=O)c1cc([N+](=O)[O-])cc([N+](=O)[O-])c1N`, for which the inhibition was inactive: 3.75%. As to `Oc1ccccc1CNc1ccccn1`, the inhibition is inactive: -5.1%. For `O=C(NC(Sc1ccncn1)C(Cl)(Cl)Cl)c1ccccc1` (centres undefined), the inhibition was inactive: -5.99%. As for `Nc1cc(N)c2nonc2c1[N+](=O)[O-]`, the inhibition was inactive: -3.22%.

Turning to `CC(C)CC(=O)NC(Sc1ccc(Cl)cc1)C(Cl)(Cl)Cl` (centres undefined), the inhibition is inactive: 5.02%. Next, `Cc1ccc(NP(=O)(Oc2ccccc2)Oc2ccccc2)nc1`: inactive: -33%; `CCc1nc2c(n1)c1c(non1O)c1c2no[n+]1[O-]`: inactive: 1.45%. As to `O=[N+]([O-])c1cc([N+](=O)[O-])c(CCNc2ccccc2)c([N+](=O)[O-])c1`, the inhibition was inactive: 13.5%. Turning to `O=[N+]([O-])c1cccc2n[nH]nc12`, the inhibition was inactive: 2.06%.

With `CC(=O)N1C2C3N(C(C)=O)C1C1N(C(C)=O)C(C(N1C(C)=O)N3C(C)=O)N2C(C)=O`, the inhibition was inactive: 8.01%. Regarding `COc1ccc(C2=NCC(CBr)S2)cc1` (centres undefined), the inhibition is inactive: -7.42%.

With `CC1CCN(C(=O)Oc2c(Cl)cc(Cl)c3cccnc23)CC1`, the inhibition is inactive: 4.07%. Turning to `c1cc(-c2nn[nH]n2)ccc1-c1nn[nH]n1`, the inhibition is inactive: -13.7%. With `CC(C)c1nc(Nc2ccccc2)n(P(=O)(N(C)C)N(C)C)n1` the figure was inactive: 2.2%.

Turning to `CC(C)=N/N=C(\N)N[N+](=O)[O-]`, the inhibition was inactive: -0.06%.

In the case of `CN(C)C(=O)OCCc1n(C)cc[n+]1C`, the inhibition is inactive: -0.03%.

As for `CCN(/C(=N/P(=O)(N1CCOCC1)N1CCOCC1)N1CCOCC1)c1ccc(OC)cc1`, the inhibition was inactive: 1.66%.

In the case of `Nc1ccc([As](=O)(O)c2ccc(N)cc2)cc1`, the inhibition is inactive: -6.53%. On to `C[N+]1=C2C=CC=CC=C2SC12C([N+](=O)[O-])=CC([N+](=O)[O-])=C[C-]2[N+](=O)[O-]` (centres undefined), for which the inhibition was inactive: 5.07%. For the compound `O=C(Nc1cc([As](=O)(O)O)ccc1O)c1ccccc1`, the inhibition is inactive: 5.77%.

As to `O=P1(N(CCCl)CCCl)OCCCS1` (centres undefined), the inhibition was inactive: -15.6%.

With `O=C(O)CNc1ccc([As](=O)(O)O)cc1`, the inhibition is inactive: 5.39%. Next, `COC(=O)C1(C)COP(=O)(Nc2ccccc2)OC1` (centres undefined): inactive: -10.1%; `O=[N+]([O-])c1cccc(NC2=NCC(CBr)S2)c1` (centres undefined): inactive: 6.77%. As for `O=[N+]([O-])c1ncn(CCn2ncnc2[N+](=O)[O-])n1`, the inhibition was inactive: -5.73%. As to `CC(C)(C)C(=O)NC(Sc1ccncn1)C(Cl)(Cl)Cl` (centres undefined), the inhibition is inactive: 4.16%.
